Data: patent publication US8697643B2, “Method for controllably releasing a drug conjugate within subcutaneous tissue in response to the local concentration of an indicator” (priority 2005, dated 2014)

Conditions: 10 mg/ml in 1×PBS, sub-Q, n=3 rats, 3.5 hours

Substance: Fluorescein isothiocyanate glycogen [FITC-glycogen]
- absorption into systemic circulation (serum fluorescence): absorbs significantly faster into systemic circulation than even the FITC-Dex-70
